Measured affinities in a library of Ab-14 light chain variants

Values reported by Engelhart et al. 2022, doi:10.1038/s41597-022-01779-4 (FLAb copy).

Binding partner: SARS-CoV-2 spike HR2 peptide, sequence PDVDLGDISGINAS.

Each scFv is VH, a 15-residue (Gly4Ser)3 linker, VL, as in the parent Ab-14, and differs from it in the CDRs of the light chain only.
VH: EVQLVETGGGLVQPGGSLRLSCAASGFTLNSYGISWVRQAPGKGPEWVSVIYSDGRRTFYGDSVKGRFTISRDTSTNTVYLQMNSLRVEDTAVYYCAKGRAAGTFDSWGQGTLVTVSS
VL: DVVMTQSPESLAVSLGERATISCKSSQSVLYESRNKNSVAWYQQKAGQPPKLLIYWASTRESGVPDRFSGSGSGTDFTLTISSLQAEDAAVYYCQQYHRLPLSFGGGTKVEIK

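Variants in AAYL50 differ from the parent at up to three CDR positions; double and triple changes were sampled at random. The scFvs were displayed on barcoded MATa yeast, the peptide on MATalpha yeast. Binding brings cells together so that they mate, and sequencing counts the barcode pairs among the diploids. A regression on co-assayed BCL2-family reference pairs converts the normalised counts of each replicate to an apparent Kd. Mating was done three times.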

Variants are written as CDR1, CDR2 and CDR3 of the light chain (limits as in the source). Parent: KSSQSVLYESRNKNSVA, WASTRES, QQYHRLPLS.
Scale: log10 of Kd in nM, estimated from mating counts; low values are strong binders.
The mean shown is taken over the replicates in which the pair was detected.
An entry "nd" has no value in the source: the pair was not observed among the diploids in any replicate. This suggests poor binding but is not conclusive.

With KSMQSVLYLSRLKNSVA / WASTRES / QQYHRLPLS the result was 3.09 (1 of 3 replicates; controls 2 of 9).
With KSSQSVIYESRNKNSVA / WASTRES / QQPHRLPCS the result was 1.45 (3 of 3 replicates; controls 2 of 9).
With KSSQSVLYESRNKNSVA / WTSTREC / QQYHRLPLS the result was 1.64 (3 of 3 replicates; controls 2 of 9).
With KSTQSVLYESRNKNSVA / WASTRES / QQYHRLAQS the result was 3.57 (1 of 3 replicates; controls 3 of 9).
With KSSQSVLYESRNKNSVA / PASLRES / QQYHRLPTS the result was 3.87 (1 of 3 replicates; controls 1 of 9).
With KSSQSVLYESSNKNSVA / WASTRER / QQYHRLPHS the result was nd (0 of 3 replicates; controls 0 of 9).
With KSSQSVLRESRNKNGVH / WASTRES / QQYHRLPLS the result was 4.17 (3 of 3 replicates; controls 0 of 9).
With TSSQSVLYESRNKNSVA / WASTAES / QQYHRLPLH the result was nd (0 of 3 replicates; controls 1 of 9).
With KSSQSVLYESRNRYSVA / WASTRES / QQYHRFPLS the result was 1.74 (3 of 3 replicates; controls 0 of 9).
With CSSQSVLYESRNKNSVA / WASTCES / QQYHRLPLS the result was 4.40 (1 of 3 replicates; controls 5 of 9).
With KSSSSVLYESRNKNRVA / WASTRES / QQYHRLPLS the result was 2.71 (3 of 3 replicates; controls 1 of 9).
With KSSQSVYSESRNKNSVA / WAATRES / QQYHRLPLS the result was 3.12 (3 of 3 replicates; controls 6 of 9).
With KSSQSVLYESRNKNSVA / WWSTRES / QQDTRLPLS the result was 4.53 (1 of 3 replicates; controls 2 of 9).
With KSSQSVLYESRSKNSVA / WASIRES / HQYHRLPLS the result was 0.88 (3 of 3 replicates; controls 3 of 9).
With KSSQSLLYESRNKESVA / VASTRES / QQYHRLPLS the result was nd (0 of 3 replicates; controls 0 of 9).
With KSSQSVLYESRNKNRVA / WASTRES / QQYHRMSLS the result was 4.22 (2 of 3 replicates; controls 3 of 9).
With KSSQSVLYESRNGNSVA / WYSTRES / IQYHRLPLS the result was 4.56 (2 of 3 replicates; controls 1 of 9).
With KSSQSVLYESRNKNSVA / WASTRMS / QQYHRCPLY the result was 2.36 (1 of 3 replicates; controls 0 of 9).
With KSSQSVLYESRNKNSVA / CASTAES / MQYHRLPLS the result was 4.62 (1 of 3 replicates; controls 1 of 9).
With KSSQCVLYESHNKNSVA / WASTRES / QQYHRLPHS the result was 3.60 (1 of 3 replicates; controls 0 of 9).
With KSSQSVNYESRNKNSVA / WASTRES / SQYHLLPLS the result was 4.31 (1 of 3 replicates; controls 4 of 9).
With KSSQTVLYESRNKNSVA / WNSTRES / IQYHRLPLS the result was nd (0 of 3 replicates; controls 0 of 9).
With KSSQSILYESRNKNSVA / WAPTRES / QQYHRGPLS the result was nd (0 of 3 replicates; controls 1 of 9).
With RSSQSVLYESRNKNSVA / WASTRES / QQYLRLPLS the result was 3.60 (1 of 3 replicates; controls 1 of 9).
With KSSQSVLYPSRNKQSVA / WASTRES / QQYHRCPLS the result was 2.45 (3 of 3 replicates; controls 0 of 9).
With KSSNSGLYESRNKNSLA / WASTRES / QQYHRLPLS the result was 2.91 (3 of 3 replicates; controls 0 of 9).
With KSSQSVLYESRNVNSVA / TASTRES / QQYHRLPLV the result was nd (0 of 3 replicates; controls 2 of 9).
With KSFQSVLYESRNKNSVD / WTSTRES / QQYHRLPLS the result was 2.52 (1 of 3 replicates; controls 0 of 9).
With FSSQSVLNESRNKNSVA / WASTRHS / QQYHRLPLS the result was 1.28 (3 of 3 replicates; controls 1 of 9).
With KSNQSVLYEHRNKNSVA / WASTRHS / QQYHRLPLS the result was 2.33 (3 of 3 replicates; controls 1 of 9).
With KRSQSVLYESRDKNSVA / IASTRES / QQYHRLPLS the result was nd (0 of 3 replicates; controls 0 of 9).
With KQSQSVLYESRNKNSVA / KASFRES / QQYHRLPLS the result was 1.80 (3 of 3 replicates; controls 2 of 9).
With GSSQSVLYESRNKPSVA / WASTRES / QQYHRLPLS the result was 3.29 (3 of 3 replicates; controls 4 of 9).
With KSSQSVLYESRNKNSFA / WASTTES / QSYHRLPLS the result was nd (0 of 3 replicates; controls 1 of 9).

Excerpt, the first 6 entries:

CDR-L1	CDR-L2	CDR-L3	mean, log10 nM	detected	empty controls
KSMQSVLYLSRLKNSVA	WASTRES	QQYHRLPLS	3.09	1/3	2/9
KSSQSVIYESRNKNSVA	WASTRES	QQPHRLPCS	1.45	3/3	2/9
KSSQSVLYESRNKNSVA	WTSTREC	QQYHRLPLS	1.64	3/3	2/9
KSTQSVLYESRNKNSVA	WASTRES	QQYHRLAQS	3.57	1/3	3/9
KSSQSVLYESRNKNSVA	PASLRES	QQYHRLPTS	3.87	1/3	1/9
KSSQSVLYESSNKNSVA	WASTRER	QQYHRLPHS	nd	0/3	0/9

Nonspecific signal, from three strains lacking the peptide, appeared in 18% of pairings of library AAYL50, centred on 4.19 (5% of these signals below 2.99); values are not corrected for it. The control count says in how many pairings with the empty strains this scFv gave a signal.
In this assay the parent's reference entry averaged 0.65; its copy inside this library read 1.68.